# Experimental data taken from ChEMBL document CHEMBL5046225, “Discovery and Optimization of Orally Bioavailable Phthalazone and Cinnolone Carboxylic Acid Derivatives as S1P2 Antagonists against Fibrotic Diseases” (J Med Chem, 2021).
# The source made the active and inactive calls. The calls are words filed in the database; no cut-off is given here.
# Key:
# Mus musculus [1] = experiment: Antifibrotic activity against intranasal bleomycin-induced C57BL/6N mouse pulmonary fibrosis model assessed as reduction in Ashcroft score at 60 mg/kg, po qd administered for 15 days starting from 7 days post induction; assay type: functional, organism-based; conditions: time 15.0 day
# Mus musculus [2] = experiment: Antifibrotic activity against Hypo fractionated palliative 17 Gy radiotherapy-induced C57BL/6J mouse lung fibrosis model assessed as reduction in collagen deposition at 60 mg/kg, po qd administered for 25 days starting from 16 weeks post irradiation by hematoxylin and eosin staining based assay; assay type: functional, organism-based; conditions: time 25.0 day
structure (smiles),measurement,setting,value
COC(=O)c1ccc2c(c1)NC(=O)/C2=C(\Nc1ccc(N(C)C(=O)CN2CCN(C)CC2)cc1)c1ccccc1,Activity,Mus musculus [1],Active
same,Activity,Mus musculus [2],Active
